Target: STING (Homo sapiens, UniProt Q86WV6)
Details: read-out: THP1 Cell IC50; inhibition of cGAMP mediated IFNb production in THP1 cells, six hours preincubation

Chains of the proteins cited; added tags and fusions are not shown. Lines headed by an entry give the natural chain unless they say otherwise; changes in a name come on top.
UniProt Q86WV6: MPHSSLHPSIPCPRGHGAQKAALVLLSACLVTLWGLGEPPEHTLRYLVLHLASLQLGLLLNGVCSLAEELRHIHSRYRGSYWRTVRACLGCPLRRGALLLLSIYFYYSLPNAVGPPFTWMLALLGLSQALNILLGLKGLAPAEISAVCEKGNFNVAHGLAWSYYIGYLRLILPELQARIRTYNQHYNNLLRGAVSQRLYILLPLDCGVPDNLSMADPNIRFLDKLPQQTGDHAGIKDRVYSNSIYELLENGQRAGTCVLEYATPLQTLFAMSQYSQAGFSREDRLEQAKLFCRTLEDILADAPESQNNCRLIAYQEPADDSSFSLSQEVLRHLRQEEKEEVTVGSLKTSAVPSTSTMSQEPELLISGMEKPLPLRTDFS

CC(C)(C)c1ccc(N2C(=O)c3cc(F)ccc3[C@H](C(=O)O)[C@H]2c2ccc3c(c2)OCCO3)cc1Cl (single isomer, unassigned) [Compound 1-2, (3S,4S or 3R,4R)-2-(4-(tert-butyl)-3-chlorophenyl)-3-(2,3-dihydrobenzo[b][1,4]dioxin-6-yl)-7-fluoro-oxo-1,2,3,4-tetrahydroisoquinoline-4-carboxylic acid]
IC50: 10 µM
